{"sequences": {"note": "The chains behind the UniProt entries cited, without tags or fusion partners. Residues count along the entry.", "UniProt P22310, 4-534 P24T": "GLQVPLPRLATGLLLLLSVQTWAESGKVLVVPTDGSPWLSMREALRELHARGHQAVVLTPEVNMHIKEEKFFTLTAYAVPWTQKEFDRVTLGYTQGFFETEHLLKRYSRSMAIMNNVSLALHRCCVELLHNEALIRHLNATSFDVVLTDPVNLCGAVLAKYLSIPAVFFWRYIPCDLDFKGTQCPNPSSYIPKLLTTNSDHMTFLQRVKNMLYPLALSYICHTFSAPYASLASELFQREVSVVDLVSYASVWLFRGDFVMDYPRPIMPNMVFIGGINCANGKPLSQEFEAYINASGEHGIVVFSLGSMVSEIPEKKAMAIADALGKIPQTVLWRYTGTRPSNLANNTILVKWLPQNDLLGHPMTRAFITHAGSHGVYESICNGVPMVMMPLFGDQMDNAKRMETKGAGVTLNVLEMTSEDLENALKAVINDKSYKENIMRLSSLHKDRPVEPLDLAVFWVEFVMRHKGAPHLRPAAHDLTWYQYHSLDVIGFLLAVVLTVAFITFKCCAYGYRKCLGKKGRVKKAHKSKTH", "UniProt P22310, 29-534 L48V": "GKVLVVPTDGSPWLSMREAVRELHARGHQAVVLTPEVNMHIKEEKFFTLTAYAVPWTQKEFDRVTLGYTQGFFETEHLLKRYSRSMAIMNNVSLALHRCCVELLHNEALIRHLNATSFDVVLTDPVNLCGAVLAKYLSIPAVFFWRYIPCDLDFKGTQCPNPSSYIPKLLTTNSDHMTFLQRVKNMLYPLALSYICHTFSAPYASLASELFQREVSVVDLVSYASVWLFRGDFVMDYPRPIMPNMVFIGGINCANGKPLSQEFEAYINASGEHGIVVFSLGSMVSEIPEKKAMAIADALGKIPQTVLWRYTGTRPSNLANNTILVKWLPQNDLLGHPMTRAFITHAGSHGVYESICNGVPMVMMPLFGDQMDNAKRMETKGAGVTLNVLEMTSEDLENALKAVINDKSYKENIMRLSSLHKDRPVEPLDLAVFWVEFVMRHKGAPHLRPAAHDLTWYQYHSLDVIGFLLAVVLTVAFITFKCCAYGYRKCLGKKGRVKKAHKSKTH", "UniProt P36537, 24-528 D67Y": "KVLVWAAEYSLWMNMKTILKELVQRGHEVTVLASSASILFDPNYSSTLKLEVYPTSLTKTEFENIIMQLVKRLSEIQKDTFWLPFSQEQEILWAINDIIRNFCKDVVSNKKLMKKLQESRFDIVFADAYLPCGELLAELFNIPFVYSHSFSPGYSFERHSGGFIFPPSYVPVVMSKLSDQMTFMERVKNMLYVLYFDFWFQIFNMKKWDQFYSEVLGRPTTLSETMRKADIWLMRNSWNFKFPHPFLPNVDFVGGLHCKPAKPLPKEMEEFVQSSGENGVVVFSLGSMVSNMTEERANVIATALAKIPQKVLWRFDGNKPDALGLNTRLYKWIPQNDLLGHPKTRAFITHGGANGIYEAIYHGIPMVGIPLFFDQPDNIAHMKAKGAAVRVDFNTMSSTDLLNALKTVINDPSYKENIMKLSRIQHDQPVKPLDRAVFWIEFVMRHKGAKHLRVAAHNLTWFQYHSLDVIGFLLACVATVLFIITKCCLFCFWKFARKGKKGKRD"}, "source": "patent US20110223597A1", "about": "(priority 2010, published 2011)", "key": {"[1]": {"biological_target": "UGT1A4 24Thr/48Leu (Homo sapiens, UniProt P22310, P24T)", "assay": "in vitro", "conditions": "human, pH 7.5, KM, OLZ-4′-N-glucuronide formation"}, "[2]": {"biological_target": "UGT1A4 24Pro/48Val (Homo sapiens, UniProt P22310, L48V)", "assay": "in vitro", "conditions": "human, pH 7.5, KM, OLZ-4′-N-glucuronide formation"}, "[3]": {"biological_target": "UGT2B10^67Tyr (Homo sapiens, UniProt P36537, D67Y)", "conditions": "UGT2B10^67Tyr"}}, "note": "Like-named read-outs stand apart in the source and are kept apart here."}
{"smiles": "Cc1cc2c(s1)Nc1ccccc1N=C2N1CCN(C)CC1", "note": "[OLZ, Olanzapine]", "values": [{"measurement": "Km at 2 h", "setting": "[1]", "value": "358 ± 54", "unit": "µM"}, {"measurement": "Km at 2 h", "setting": "[2]", "value": "326 ± 33", "unit": "µM"}, {"measurement": "glucuronidation activity", "setting": "[3]; OLZ-4′-N-glucuronide formation", "value": "no activity detected"}, {"measurement": "glucuronidation activity", "setting": "[3]; OLZ-10-N-glucuronide isomer 2 formation", "value": "no activity detected"}]}
